Drawing on PubChem BioAssay AID1220 (Sanford-Burnham Center for Chemical Genomics, 2008), this text covers inhibition for 77 compounds.

Chains of the proteins cited; added tags and fusions are not shown. Lines headed by an entry give the natural chain unless they say otherwise; changes in a name come on top.
UniProt P34949: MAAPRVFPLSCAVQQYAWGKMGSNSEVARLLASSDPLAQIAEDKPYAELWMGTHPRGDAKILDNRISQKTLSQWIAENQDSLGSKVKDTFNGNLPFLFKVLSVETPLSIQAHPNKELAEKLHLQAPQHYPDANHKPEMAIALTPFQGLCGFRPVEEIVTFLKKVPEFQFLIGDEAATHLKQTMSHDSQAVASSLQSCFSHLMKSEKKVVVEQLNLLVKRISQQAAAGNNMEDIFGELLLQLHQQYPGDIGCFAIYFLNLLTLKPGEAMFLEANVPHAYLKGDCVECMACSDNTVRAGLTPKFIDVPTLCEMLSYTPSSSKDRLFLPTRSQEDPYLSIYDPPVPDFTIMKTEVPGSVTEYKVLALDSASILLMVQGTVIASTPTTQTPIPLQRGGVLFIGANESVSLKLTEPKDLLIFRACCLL

Only a part is listed here, and it is no random draw. Calls of active or inactive are those of the source. Rule as the data show it: active = inhibition above about 50%; inactive = the rest.

The term inhibition denotes the relative decrease from the control value, in per cent.

This test deals with Mannose-6-phosphate isomerase (Homo sapiens) (UniProt P34949). In words: MPI inhibition at elevated mannose 6-phosphate – biochemical, fluorescence intensity, high mannose 6-phosphate, primary screen (AID 1220). To be noted: recombinant PMI enzyme, coupled fluorescence intensity; at 20 µM; active compounds read high.
Consider `CC(C)(C)C(=O)NC(Sc1ccccc1)C(Cl)(Cl)Cl` (configuration not stated), for which the inhibition was inactive: 3.2%.

Turning to `O=P1(Nc2nc3ccc(Cl)cc3s2)COc2ccccc2O1` (configuration not stated), the inhibition was inactive: 7.3%.

Consider `CCOc1ccc(C2=NCC(CBr)S2)cc1` (configuration not stated), for which the inhibition was inactive: -4.7%.

In the case of `CC(=O)Nc1ccc(Oc2c([N+](=O)[O-])cc([N+](=O)[O-])cc2[N+](=O)[O-])cc1`, the inhibition is inactive: 0.6%.

Take `O=C(NC1CCS(=O)(=O)C1)NP(=S)(Oc1ccccc1)Oc1ccccc1` (configuration not stated): the inhibition is inactive: 15.3%.

Turning to `CCNC(=S)/N=C(\N)N[N+](=O)[O-]`, the inhibition was inactive: -6.9%.

As to `c1ccc(-c2nn[nH]n2)c(-c2nn[nH]n2)c1`, the inhibition is inactive: -16.5%.

Take `CCOC(=O)NC(Sc1ccccc1)C(Cl)(Cl)Cl` (configuration not stated): the inhibition is inactive: 0.8%.

Take `O=c1c2cc([N+](=O)[O-])ccc2[nH]c2c([N+](=O)[O-])cc([N+](=O)[O-])cc12`: the inhibition is inactive: 26.3%.

`COC(=O)c1cc2c(s1)N=C(c1ccccc1)N(C)P2(=O)N1CCOCC1` (configuration not stated): the inhibition was inactive: -4.1%.

In the case of `Cc1ccc(OP(=O)(Nc2ccccn2)Oc2ccc(C)cc2)cc1`, the inhibition was inactive: 6%.

On to `CC(=O)NC(SC(=S)N(CC(C)C)CC(C)C)C(Cl)(Cl)Cl` (configuration not stated), for which the inhibition is inactive: -8.7%.

As for `CCC(=O)N1C2C3N(C(=O)CC)C1C1N(C(=O)CC)C(C(N1C(=O)CC)N3C(=O)CC)N2C(=O)CC`, the inhibition was inactive: 1.7%.

Regarding `O=P(Nc1ccccn1)(c1ccc(Br)cc1)c1ccc(Br)cc1`, the inhibition was inactive: 2.6%.

Consider `C(Cc1nn[nH]n1)Cc1nn[nH]n1`, for which the inhibition was inactive: -24.9%.

Take `O=C(OC1CN2CCC1CC2)c1cccc(Cl)c1` (configuration not stated): the inhibition was inactive: 5.7%.

For the compound `CC(=O)NC(SC(=S)N(C)C)C(Cl)(Cl)Cl` (configuration not stated), the inhibition is inactive: -3%.

As to `c1nnnn1CCn1cnnn1`, the inhibition is inactive: 2.3%.

On to `O=P(Nc1nccs1)(c1ccccc1)c1ccccc1`, for which the inhibition is inactive: -5.3%.

As for `CC(C)C(=O)NC(Sc1ccccc1)C(Cl)(Cl)Cl` (configuration not stated), the inhibition is inactive: -1.9%.

`CC(=O)N1C2C3N(C(C)=O)C1C1N(C(C)=O)C(C(N1C(C)=O)N3C(C)=O)N2C(C)=O`: the inhibition is inactive: 3.1%.

Take `O=[N+]([O-])c1cccc2n[nH]nc12`: the inhibition is inactive: -7.7%.

In the case of `Cc1ccc(NP(=O)(Oc2ccccc2)Oc2ccccc2)nc1`, the inhibition was inactive: 10.1%.

Turning to `O=[N+]([O-])c1cc([N+](=O)[O-])c(CCNc2ccccc2)c([N+](=O)[O-])c1`, the inhibition was inactive: 6%.

Take `COc1ccc(C2=NCC(CBr)S2)cc1` (configuration not stated): the inhibition was inactive: -8.4%.

`CC(C)=N/N=C(\N)N[N+](=O)[O-]`: the inhibition is inactive: -9.5%.

With `CN(C)C(=O)OCCc1n(C)cc[n+]1C`, the inhibition is inactive: -6.6%.

For the compound `CC1CCN(C(=O)Oc2c(Cl)cc(Cl)c3cccnc23)CC1`, the inhibition was inactive: -0.7%.

In the case of `CCN(/C(=N/P(=O)(N1CCOCC1)N1CCOCC1)N1CCOCC1)c1ccc(OC)cc1`, the inhibition was inactive: -0.7%.

In the case of `O=[N+]([O-])c1ncn(CCn2ncnc2[N+](=O)[O-])n1`, the inhibition is inactive: 15%.

On to `CCOP(=O)(Nc1ccccc1)OCC`, for which the inhibition is inactive: -3.4%.

For the compound `Cc1cc(SC(NC(=O)c2ccc(F)cc2)C(Cl)(Cl)Cl)ncn1` (configuration not stated), the inhibition is inactive: -37.8%.

`CCN(N=Nc1nonc1N)c1nonc1N`: the inhibition was inactive: 12.7%.

With `COc1ccccc1OP(=O)(Nc1ccc(C)cn1)Oc1ccccc1OC`, the inhibition is inactive: 2%.

On to `Clc1ccc(Cl)c(NC2=NCC(CBr)S2)c1` (configuration not stated), for which the inhibition was inactive: -9.9%.

With `CN1CCCC(OC(=O)C(c2ccccc2)c2ccccc2)C1` (configuration not stated), the inhibition is inactive: -11.3%.

For the compound `NC(=O)c1cc([N+](=O)[O-])cc([N+](=O)[O-])c1N`, the inhibition was inactive: -4.8%.

Turning to `Cc1ccc(N/C(=N/P(=O)(N2CCOCC2)N2CCOCC2)N2CCOCC2)cc1`, the inhibition is inactive: -3.2%.

Turning to `CC(C)CC(=O)NC(Sc1ccc(Cl)cc1)C(Cl)(Cl)Cl` (configuration not stated), the inhibition was inactive: -2.5%.

As to `Oc1ccccc1CNc1ccccn1`, the inhibition is inactive: 1.2%.

With `Cc1c2non([O-])c-2c(C)[n+](=O)[n+]1[O-]`, the inhibition is inactive: 37.7%.

Regarding `O=C(NC(Sc1ccncn1)C(Cl)(Cl)Cl)c1ccccc1` (configuration not stated), the inhibition was inactive: -66.1%.

With `COc1ccc2nc(NP(=O)(c3ccccc3)c3ccccc3)sc2c1`, the inhibition was inactive: -0.9%.

As to `O=C(OC1CN2CCC1CC2)C12CC3CC(CC(C3)C1)C2` (configuration not stated), the inhibition was inactive: -6.1%.

In the case of `Cc1cc(=O)[nH]c(N[N+](=O)[O-])n1`, the inhibition was inactive: -2%.

Turning to `Cc1c2c(nc3ccccc13)SC(C(Cl)Cl)C2` (configuration not stated), the inhibition was inactive: 0.6%.

As for `COc1ccc(N/C(=N/P(=O)(N2CCOCC2)N2CCOCC2)N2CCOCC2)cc1`, the inhibition is inactive: 1.2%.

As for `Cc1ccc2nc3c(c(C)c2c1)CC(C(Cl)Cl)S3` (configuration not stated), the inhibition is inactive: 1.1%.

Regarding `CCN(CC)C(=S)SC(NC=O)C(Cl)(Cl)Cl` (configuration not stated), the inhibition was inactive: 0.3%.

For the compound `CC(C)NC(=O)NP(=O)(Oc1ccccc1)Oc1ccccc1`, the inhibition was inactive: 8.9%.

For `O=[N+]([O-])c1cc([N+](=O)[O-])c(-c2ccn[nH]2)s1`, the inhibition was inactive: 15%.

Take `ClCCSc1nnc(-c2cccnc2)o1`: the inhibition is inactive: 14%.

For `Cc1cc(SC(NC(=O)c2ccccc2)C(Cl)(Cl)Cl)nc(C(C)C)n1` (configuration not stated), the inhibition was inactive: -17.2%.

On to `Cc1cc(SC(NC=O)C(Cl)(Cl)Cl)ncn1` (configuration not stated), for which the inhibition is inactive: -76.6%.

Consider `O=P(Nc1ccccn1)(c1cccc2ccccc12)c1cccc2ccccc12`, for which the inhibition is inactive: 8.8%.

Regarding `O=C(COc1ccccc1)OC1CN2CCC1CC2` (configuration not stated), the inhibition is inactive: -0.6%.

As to `COP1(=S)c2c(C)nn(CCC#N)c2N=C(c2ccc(F)cc2)N1C` (configuration not stated), the inhibition is inactive: -6.4%.

With `CCC(C)N(CC(C)C)C(=S)SC(NC(C)=O)C(Cl)(Cl)Cl` (configuration not stated), the inhibition was inactive: -7.3%.

As for `Clc1n[nH]nc1-c1nn[nH][15n]1`, the inhibition is inactive: 3.7%.

For `O=P1(Nc2ccccn2)COc2ccccc2OC1`, the inhibition is inactive: 3.9%.

As for `CN(C(=O)Cc1ccc(Cl)c(Cl)c1)[C@@H]1CCCC[C@H]1N1CCCC1`, the inhibition was inactive: 1.5%.

For `CC(C)/C=N\N=C(\N)N[N+](=O)[O-]`, the inhibition was inactive: -12.1%.

On to `CN(C)C1(CNC(=O)c2ccc(S(C)(=O)=O)cc2)CCCCC1`, for which the inhibition is inactive: 9.2%.

Turning to `Cc1nn(-c2ccccc2)c2c1P(=O)(N1CCOCC1)N(C)C(c1ccccc1)=N2` (configuration not stated), the inhibition is inactive: 6.7%.

Turning to `CC1CCC(C(C)C)C(OP(=O)(Nc2ccccn2)c2ccccc2)C1` (configuration not stated), the inhibition was inactive: -2.4%.

Consider `O=P1(Nc2ccc(Br)cn2)COc2ccccc2OC1`, for which the inhibition is inactive: -6.5%.

As to `Cc1ccc(OCC(=O)OC2CN3CCC2CC3)cc1` (configuration not stated), the inhibition is inactive: 7.7%.

On to `O=P1(Nc2ncccn2)COc2ccccc2OC1`, for which the inhibition is inactive: -20.7%.

As for `CCOP1(=S)c2c(C)nn(CCC#N)c2N=C(c2ccccc2F)N1C` (configuration not stated), the inhibition was inactive: -0.3%.

On to `O=P(Nc1nccs1)(Oc1ccccc1)Oc1ccccc1`, for which the inhibition was inactive: 2.8%.

As for `O=[N+]([O-])c1ccc2c(c1)nnn2O`, the inhibition is inactive: -8.8%.

As for `CCOP1(=S)c2c(C)nn(CCC#N)c2N=C(c2ccc(F)cc2)N1C` (configuration not stated), the inhibition was inactive: -2.1%.

As to `Cc1cccc(OCC(=O)OC2CN3CCC2CC3)c1` (configuration not stated), the inhibition is inactive: 3.8%.

As to `COc1cc(C(=O)NCC2(N3CCOCC3)CCCCC2)cc(Cl)c1OC(C)C`, the inhibition is inactive: -5.8%.

`COc1cc(C2NCCC3(OCCO3)C2(C)C)cc(OC)c1OC` (configuration not stated): the inhibition was inactive: -2.3%.

Regarding `CCOP(=O)(Nc1cccc2ccccc12)OCC`, the inhibition was inactive: 3.2%.

As to `Cc1ccc(NCCc2c([N+](=O)[O-])cc([N+](=O)[O-])cc2[N+](=O)[O-])cc1`, the inhibition is inactive: 25.3%.
